Results: US20240101576A1, “HETEROCYCLIC INHIBITORS OF EGFR AND/OR HER2, FOR USE IN THE TREATMENT OF CANCER” (Scorpion Therapeutics, Inc., priority 2020, published 2024)

Sequences of proteins named here, by UniProt entry; tags and fusion partners are left off. A line that says so, or that is headed by a name, gives the form on record, which may keep a tag or linker. Residues count along the entry.
UniProt P00533, with tags, fused parts or gaps INS769ASV limits assumed: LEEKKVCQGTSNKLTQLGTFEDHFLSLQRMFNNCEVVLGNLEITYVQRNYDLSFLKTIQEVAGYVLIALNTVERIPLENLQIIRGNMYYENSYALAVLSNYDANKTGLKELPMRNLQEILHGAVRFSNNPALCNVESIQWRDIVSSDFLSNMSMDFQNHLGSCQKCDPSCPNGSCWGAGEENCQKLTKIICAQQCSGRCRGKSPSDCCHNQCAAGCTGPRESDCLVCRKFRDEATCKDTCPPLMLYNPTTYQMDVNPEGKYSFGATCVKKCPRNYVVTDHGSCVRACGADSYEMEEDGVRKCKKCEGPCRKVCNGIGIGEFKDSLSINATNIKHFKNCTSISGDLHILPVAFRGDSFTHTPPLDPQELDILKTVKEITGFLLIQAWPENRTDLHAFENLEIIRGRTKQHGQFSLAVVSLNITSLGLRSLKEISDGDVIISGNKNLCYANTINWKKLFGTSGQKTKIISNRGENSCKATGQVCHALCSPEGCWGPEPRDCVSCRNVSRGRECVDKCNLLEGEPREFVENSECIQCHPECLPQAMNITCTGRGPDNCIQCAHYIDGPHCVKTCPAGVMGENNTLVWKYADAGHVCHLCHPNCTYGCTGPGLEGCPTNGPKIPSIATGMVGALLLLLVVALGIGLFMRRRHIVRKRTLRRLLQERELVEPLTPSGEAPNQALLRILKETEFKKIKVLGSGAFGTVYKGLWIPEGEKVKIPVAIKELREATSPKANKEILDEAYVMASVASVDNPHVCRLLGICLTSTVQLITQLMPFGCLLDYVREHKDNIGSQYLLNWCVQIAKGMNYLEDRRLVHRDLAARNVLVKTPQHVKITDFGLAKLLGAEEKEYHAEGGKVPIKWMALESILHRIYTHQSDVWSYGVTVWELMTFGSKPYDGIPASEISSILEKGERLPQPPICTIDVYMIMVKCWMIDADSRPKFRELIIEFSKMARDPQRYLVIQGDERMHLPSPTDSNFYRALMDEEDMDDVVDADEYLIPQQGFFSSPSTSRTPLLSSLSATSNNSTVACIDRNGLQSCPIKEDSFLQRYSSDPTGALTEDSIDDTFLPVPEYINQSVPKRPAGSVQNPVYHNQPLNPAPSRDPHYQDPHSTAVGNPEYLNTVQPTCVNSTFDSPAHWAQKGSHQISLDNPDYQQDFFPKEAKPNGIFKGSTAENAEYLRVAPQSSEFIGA
UniProt P00533, 25-1210 limits assumed: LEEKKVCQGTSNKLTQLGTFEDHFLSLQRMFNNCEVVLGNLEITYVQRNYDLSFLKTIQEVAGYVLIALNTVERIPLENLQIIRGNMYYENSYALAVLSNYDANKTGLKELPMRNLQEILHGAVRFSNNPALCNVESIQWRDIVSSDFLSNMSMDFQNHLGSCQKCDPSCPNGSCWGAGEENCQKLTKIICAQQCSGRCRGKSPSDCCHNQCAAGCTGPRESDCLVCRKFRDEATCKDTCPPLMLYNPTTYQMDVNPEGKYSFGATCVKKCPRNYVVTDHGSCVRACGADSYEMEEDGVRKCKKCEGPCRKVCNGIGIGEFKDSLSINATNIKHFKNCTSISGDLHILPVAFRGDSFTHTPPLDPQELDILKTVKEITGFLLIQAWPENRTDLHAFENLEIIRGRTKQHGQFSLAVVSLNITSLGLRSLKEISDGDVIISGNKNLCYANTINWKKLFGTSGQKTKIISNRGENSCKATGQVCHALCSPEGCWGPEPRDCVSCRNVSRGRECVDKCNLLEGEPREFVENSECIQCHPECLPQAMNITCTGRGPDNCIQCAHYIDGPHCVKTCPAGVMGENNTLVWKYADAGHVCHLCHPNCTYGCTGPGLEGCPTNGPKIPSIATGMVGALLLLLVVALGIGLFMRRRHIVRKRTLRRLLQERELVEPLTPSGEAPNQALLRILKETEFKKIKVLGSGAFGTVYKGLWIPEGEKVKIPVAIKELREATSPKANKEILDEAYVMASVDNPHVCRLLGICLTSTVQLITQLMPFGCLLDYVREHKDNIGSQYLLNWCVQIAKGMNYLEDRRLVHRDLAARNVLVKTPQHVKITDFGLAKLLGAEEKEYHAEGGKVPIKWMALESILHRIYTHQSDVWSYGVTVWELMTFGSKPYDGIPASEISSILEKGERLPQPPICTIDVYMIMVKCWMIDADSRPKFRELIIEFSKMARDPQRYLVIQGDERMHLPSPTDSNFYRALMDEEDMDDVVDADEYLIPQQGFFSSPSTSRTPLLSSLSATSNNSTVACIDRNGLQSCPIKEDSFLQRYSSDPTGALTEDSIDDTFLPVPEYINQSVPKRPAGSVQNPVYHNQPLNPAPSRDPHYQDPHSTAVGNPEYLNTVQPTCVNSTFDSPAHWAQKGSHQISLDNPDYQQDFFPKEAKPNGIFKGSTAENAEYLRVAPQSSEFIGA
UniProt P00533, with tags, fused parts or gaps INS770NPG limits assumed: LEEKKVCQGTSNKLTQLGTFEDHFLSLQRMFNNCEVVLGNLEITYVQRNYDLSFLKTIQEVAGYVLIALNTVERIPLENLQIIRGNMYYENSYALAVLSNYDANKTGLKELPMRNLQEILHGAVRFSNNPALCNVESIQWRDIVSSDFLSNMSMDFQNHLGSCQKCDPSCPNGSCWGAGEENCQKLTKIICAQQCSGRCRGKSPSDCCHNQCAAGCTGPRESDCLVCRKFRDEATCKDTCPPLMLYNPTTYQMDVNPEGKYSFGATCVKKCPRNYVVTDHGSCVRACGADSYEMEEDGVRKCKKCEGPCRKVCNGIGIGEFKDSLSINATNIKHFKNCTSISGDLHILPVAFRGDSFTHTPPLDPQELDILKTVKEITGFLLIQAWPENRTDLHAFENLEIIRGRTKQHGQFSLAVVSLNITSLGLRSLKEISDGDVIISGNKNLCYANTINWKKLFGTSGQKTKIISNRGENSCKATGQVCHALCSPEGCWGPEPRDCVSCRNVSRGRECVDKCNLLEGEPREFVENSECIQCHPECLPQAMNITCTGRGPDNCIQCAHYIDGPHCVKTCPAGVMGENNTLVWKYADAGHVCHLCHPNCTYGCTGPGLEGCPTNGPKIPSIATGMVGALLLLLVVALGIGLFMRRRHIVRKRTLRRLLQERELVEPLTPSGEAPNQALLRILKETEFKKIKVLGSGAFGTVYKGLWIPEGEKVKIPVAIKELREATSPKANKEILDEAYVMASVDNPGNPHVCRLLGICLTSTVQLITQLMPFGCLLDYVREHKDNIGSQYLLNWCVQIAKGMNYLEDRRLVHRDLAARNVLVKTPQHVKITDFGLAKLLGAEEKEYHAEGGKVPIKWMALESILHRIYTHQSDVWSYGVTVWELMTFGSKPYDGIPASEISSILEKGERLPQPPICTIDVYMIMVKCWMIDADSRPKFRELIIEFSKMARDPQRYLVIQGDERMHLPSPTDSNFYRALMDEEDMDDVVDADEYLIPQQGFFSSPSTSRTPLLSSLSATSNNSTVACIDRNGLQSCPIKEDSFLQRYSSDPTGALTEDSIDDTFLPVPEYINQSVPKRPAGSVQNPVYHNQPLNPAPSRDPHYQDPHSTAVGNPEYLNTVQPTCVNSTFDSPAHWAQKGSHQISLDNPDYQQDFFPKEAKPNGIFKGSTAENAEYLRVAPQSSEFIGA
UniProt P00533, with tags, fused parts or gaps INS770SVD limits assumed: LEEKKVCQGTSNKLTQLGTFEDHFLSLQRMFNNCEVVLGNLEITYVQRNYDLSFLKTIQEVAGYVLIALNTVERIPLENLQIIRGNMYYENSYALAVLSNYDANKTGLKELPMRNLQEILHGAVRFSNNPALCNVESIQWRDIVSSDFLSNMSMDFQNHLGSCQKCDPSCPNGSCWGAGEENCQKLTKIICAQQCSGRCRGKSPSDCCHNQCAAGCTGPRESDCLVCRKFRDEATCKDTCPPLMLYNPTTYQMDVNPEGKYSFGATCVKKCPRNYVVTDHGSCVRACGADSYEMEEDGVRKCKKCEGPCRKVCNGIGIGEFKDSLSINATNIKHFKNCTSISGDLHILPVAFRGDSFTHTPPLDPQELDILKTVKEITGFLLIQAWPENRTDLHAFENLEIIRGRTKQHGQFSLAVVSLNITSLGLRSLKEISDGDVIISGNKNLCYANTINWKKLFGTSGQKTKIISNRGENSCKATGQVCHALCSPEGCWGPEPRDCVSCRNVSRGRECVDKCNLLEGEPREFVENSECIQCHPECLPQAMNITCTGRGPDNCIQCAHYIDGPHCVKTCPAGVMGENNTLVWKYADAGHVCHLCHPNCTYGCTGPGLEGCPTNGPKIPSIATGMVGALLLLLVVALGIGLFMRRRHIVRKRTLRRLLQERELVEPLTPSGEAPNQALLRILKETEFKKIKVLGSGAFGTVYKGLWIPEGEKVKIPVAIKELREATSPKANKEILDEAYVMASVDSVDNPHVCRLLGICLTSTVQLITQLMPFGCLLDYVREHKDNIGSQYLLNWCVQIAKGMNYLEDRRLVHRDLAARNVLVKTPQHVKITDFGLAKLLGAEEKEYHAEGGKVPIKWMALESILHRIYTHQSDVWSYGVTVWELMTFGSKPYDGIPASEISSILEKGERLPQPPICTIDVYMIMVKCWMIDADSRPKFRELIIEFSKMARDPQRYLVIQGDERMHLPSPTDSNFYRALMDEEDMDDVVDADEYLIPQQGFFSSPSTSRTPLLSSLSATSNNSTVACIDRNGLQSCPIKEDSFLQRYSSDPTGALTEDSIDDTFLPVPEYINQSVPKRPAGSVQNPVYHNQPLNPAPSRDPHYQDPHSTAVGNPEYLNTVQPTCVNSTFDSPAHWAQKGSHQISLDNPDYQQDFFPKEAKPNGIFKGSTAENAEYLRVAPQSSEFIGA
UniProt P00533, with tags, fused parts or gaps INS763FQEA limits assumed: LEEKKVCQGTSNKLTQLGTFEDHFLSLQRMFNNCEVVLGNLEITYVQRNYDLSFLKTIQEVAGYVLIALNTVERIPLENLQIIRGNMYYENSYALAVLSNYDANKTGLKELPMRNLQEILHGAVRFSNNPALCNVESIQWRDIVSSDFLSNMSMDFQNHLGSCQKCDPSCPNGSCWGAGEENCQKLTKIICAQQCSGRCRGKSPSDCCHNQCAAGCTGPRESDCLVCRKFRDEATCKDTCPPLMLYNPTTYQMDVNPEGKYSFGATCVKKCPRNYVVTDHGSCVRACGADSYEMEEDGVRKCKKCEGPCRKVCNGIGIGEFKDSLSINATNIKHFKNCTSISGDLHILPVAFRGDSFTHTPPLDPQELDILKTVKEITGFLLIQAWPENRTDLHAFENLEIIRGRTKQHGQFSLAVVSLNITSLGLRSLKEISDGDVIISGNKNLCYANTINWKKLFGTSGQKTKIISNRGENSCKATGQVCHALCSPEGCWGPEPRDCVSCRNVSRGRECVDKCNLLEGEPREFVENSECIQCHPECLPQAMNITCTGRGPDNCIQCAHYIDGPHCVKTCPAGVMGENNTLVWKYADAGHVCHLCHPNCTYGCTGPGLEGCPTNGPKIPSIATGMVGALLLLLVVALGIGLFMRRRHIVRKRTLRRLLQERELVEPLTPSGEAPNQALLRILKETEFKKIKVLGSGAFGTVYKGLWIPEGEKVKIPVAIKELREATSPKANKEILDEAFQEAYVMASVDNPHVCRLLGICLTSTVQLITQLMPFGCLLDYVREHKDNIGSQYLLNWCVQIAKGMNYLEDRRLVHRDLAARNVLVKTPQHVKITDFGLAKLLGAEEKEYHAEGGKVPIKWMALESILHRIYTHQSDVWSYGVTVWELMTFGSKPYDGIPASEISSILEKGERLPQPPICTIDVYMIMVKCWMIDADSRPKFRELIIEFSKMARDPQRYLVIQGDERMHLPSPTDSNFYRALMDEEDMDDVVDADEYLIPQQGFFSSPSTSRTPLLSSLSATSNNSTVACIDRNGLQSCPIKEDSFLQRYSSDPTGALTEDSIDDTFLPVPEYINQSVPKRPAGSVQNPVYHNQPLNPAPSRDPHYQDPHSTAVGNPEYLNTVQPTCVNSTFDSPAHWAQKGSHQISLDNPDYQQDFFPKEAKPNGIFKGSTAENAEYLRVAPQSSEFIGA

Tests used:
Assay type in all cases: cell-based
[1] = biological target: EGFR exon 20 SVD Ins D770_N771 (Ba/F3 cells) (Homo sapiens, UniProt P00533, INS770SVD); assay: Inhibitor activity on EGFR-dependent cell growth (CellTiter-Glo, 72 h), Ba/F3 EGFR exon 20 SVD Ins; details: read-out: BaF3 SVD IC50
[2] = biological target: T1, EGFR exon 20 ASV Ins V769_D770 (Ba/F3 cells) (Homo sapiens, UniProt P00533, INS769ASV); assay: Inhibitor activity on EGFR-dependent cell growth (CellTiter-Glo, 72 h), Ba/F3 EGFR exon 20 ASV Ins; details: read-out: BaF3 ASV IC50
[3] = biological target: EGFR exon 20 FQEA Ins A763_V764 (Ba/F3 cells) (Homo sapiens, UniProt P00533, INS763FQEA); assay: Inhibitor activity on EGFR-dependent cell growth (CellTiter-Glo, 72 h), Ba/F3 EGFR exon 20 FQEA Ins; details: read-out: BaF3 FQEA IC50
EGFR WT (Ba/F3 cells) = EGFR WT (Ba/F3 cells) (Homo sapiens, UniProt P00533); assay: Inhibitor activity on EGFR-dependent cell growth (CellTiter-Glo, 72 h), Ba/F3 EGFR WT; details: read-out: BaF3 WT IC50
[4] = biological target: T2, EGFR exon 20 NPG Ins D770_N771 (Ba/F3 cells) (Homo sapiens, UniProt P00533, INS770NPG); assay: Inhibitor activity on EGFR phosphorylation (pEGFR AlphaLISA, 2 h), Ba/F3 EGFR exon 20 NPG Ins; details: read-out: NPG IC50 (pEGFR)
Excerpt: Example B. Inhibitor Activity on EGFR phosphorylation (pEGFR)
EGFR mutant Ba/F3 cells were generated by transduction with retrovirus containing vectors expressing EGFR L858R, EGFR exon 19del, EGFR L858R/C797S, EGFR exon 20 NPG Ins D770_N771, EGFR exon 20 ASV Ins V769_D770, or EGFR exon 20 SVD Ins D770_N771 genes along with a puromycin selection marker. Transduced cells are selected with puromycin for 7 days and are then be transferred into culture media without Interleukin 3 (IL3). Surviving cells are confirmed to express EGFR by Western blot and maintained as a pool. CUTO14 cells were obtained from Dr. Robert C. Doebele at the University of Colorado. The IC50 date are included in Table 6 and Table 7.
1.1 Cells are harvested from flask into cell culture medium and the cell number counted.
1.2 Cells are diluted with culture medium to the desired density and 40 μL of cell suspension is added into each well of 384-well cell culture plate and the seeding density is 50K cells/well (Ba/F3) or 12.5K cells/well (CUTO14).
2 Compound Preparation and Treatment
2.1 Test compounds are dissolved to 10 mM in a DMSO stock solution. 45 μL of stock solution is transferred to a 384 polypropylene plate (pp-plate). Perform 3-fold, 10-point dilution via transferring 15 μL compound into 30 μL DMSO using a TECAN (EVO200) liquid handler. […]
3.5 Transfer 18.5 μL mixture to OptiPlate 384, and read using an Envision. […]

[5] = biological target: T1, EGFR exon 20 ASV Ins V769_D770 (Ba/F3 cells); assay: Inhibitor activity on EGFR phosphorylation (pEGFR AlphaLISA, 2 h), Ba/F3 EGFR exon 20 ASV Ins; details: read-out: ASV IC50 (pEGFR)
[6] = biological target: T2, EGFR exon 20 NPG Ins D770_N771 (Ba/F3 cells); assay: Inhibitor activity on EGFR-dependent cell growth (CellTiter-Glo, 72 h), Ba/F3 EGFR exon 20 NPG Ins; details: read-out: BaF3 NPG IC50

SMILES | IC50 [1] [nM] | IC50 [2] [nM] | IC50 [3] [nM] | IC50 (EGFR WT (Ba/F3 cells)) [nM] | IC50 [4] [nM] | IC50 [5] [nM] | IC50 [6] [nM]
C=CC[C@H]1CNC(=O)c2c1[nH]c(-c1cc[n+]([O-])cc1F)c2Nc1cccc(Cl)c1OC | > 1000 | > 1000 | > 1000 | > 1000 |  |  | 
COc1c(Cl)cccc1Nc1c(-c2ccnc(Nc3cccc(F)c3)n2)[nH]c2c1C(=O)NCC2 | < 100 | < 100 | < 100 | 100 to 1000 | < 100 | < 100 | < 100
